One substance from patent publication US8124332B2, “Methods of using sIP-10, CD26 inhibitors and CXCR3 levels in a sample to assess clearance of infection, response to interferon therapy, and treating chronic infections” (Institut Pasteur, priority 2006, dated 2012) can be followed below.

For one test, the system named is CXCR3+ cells. The test is described as follows: In vivo bio-assay: circulating CXCR3+ cells in chronic HCV patient after first dose of peg-IFN-α2. Also on record: species or system human. Particulars: 6 hr post-injection; 35% pre-treatment. An excerpt: (§1) As a second test for the inventors' hypothesis, the inventors have developed an ‘in vivo-bioassay’ to evaluate the fate of CXCR3^+ cells in individuals who have high levels of plasma CXCL10. To the inventors' knowledge, there is no report that evaluated in vivo migration as a function of plasma chemokine expression while taking care to determine that the chemokine is in a bioactive form. To establish a positive control for the assay, blood samples were collected from chronic HCV patients during the initiation of their treatment with peg-IFN-α2/RBV. 6 hr following the initial dose of peg-IFN-α2, the inventors observed high levels of plasma CXCL10, all of which existed in the agonist form, based on detection with anti-CXCL10, antisera L3 (FIG. 13A). […] Based on the enumeration of T cells and the selective decrease in CXCR3^+ cells (FIG. 13C), the interpretation is that the IFN treatment results in agonist CXCL10 production and migration of the CXCR3^+ cells.
(§2) FIG. 13. Establishment of an ‘in vivo bio-assay’ for agonist activity of plasma CXCL10. Plasma and whole blood was collected from an HCV chronic patient prior to initiation of treatment and six hours after the first dose of IFNα2. The plasma was analyzed by parallel sandwich ELISA for detection of total CXCL10 (black) and agonist CXCL10 (red) (A). […]

For another test, the system named is CXCL10. The test is described as follows: Plasma CXCL10 by parallel sandwich ELISA after first dose of peg-IFN-α2. Particulars: 6 hr following the initial dose; all in the agonist form. Format: in vivo, human.
Description: as §1, §2
In general terms: In an ELISA, binding on a coated surface is turned into a signal by an enzyme label.

With “peg-IFN-α2: pegylated interferon α2 given to chronic HCV patients”, the “level of circulating CXCR3+ cells” value in the test with CXCR3+ cells is on record as 2%. For the same substance, in the test on CXCL10, the “plasma CXCL10” value is on record as “high levels”.
